# According to ChEMBL document CHEMBL3580647, “Discovery of potent indenoisoquinoline topoisomerase I poisons lacking the 3-nitro toxicophore” (J Med Chem, 2015):
# Experiment: Growth inhibition of human NCI60 cells assessed as cell growth at 10 uM
# Assay type: functional
# Conditions: read-out: Activity
# Procedure, shortened: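 NCI-60 single-dose screen at 10 μM across ~60 human cancer cell lines. Reported as growth percent relative to vehicle-treated control, averaged over all lines tested as a mean growth percent.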
smiles,measurement,value
CN(C)CCCn1c2c(c3ccncc3c1=O)C(=O)c1ccccc1-2,growth at 10 µM,-9.25%
